# pKi: −log10 of the molar value.
# Amino acid sequences for entries named in this document (tags omitted). A change or cut given only in a name is not applied to a line headed by its entry.
# UniProt Q9Y2D0: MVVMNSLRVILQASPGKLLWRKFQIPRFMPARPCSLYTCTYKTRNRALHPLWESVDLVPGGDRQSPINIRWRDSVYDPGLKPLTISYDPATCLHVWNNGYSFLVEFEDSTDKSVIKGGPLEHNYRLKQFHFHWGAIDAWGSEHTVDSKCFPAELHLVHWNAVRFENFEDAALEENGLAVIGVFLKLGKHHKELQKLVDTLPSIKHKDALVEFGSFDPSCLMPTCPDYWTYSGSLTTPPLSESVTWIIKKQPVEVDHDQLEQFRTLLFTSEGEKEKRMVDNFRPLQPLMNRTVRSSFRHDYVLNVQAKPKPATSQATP
# Legend:
# Carbonic anhydrase 2 = Carbonic anhydrase 2 (Homo sapiens, UniProt P00918)
# [1] = biological target: Carbonic anhydrase 5B, mitochondrial (Homo sapiens, UniProt Q9Y2D0)
structure (smiles),measurement,setting,value
O=C(O)c1ccc(O)cc1 [PARABEN],pKi,Carbonic anhydrase 2,6.06
same,pKi,[1],5.15

# Reference: ChEMBL document CHEMBL1157641, “Carbonic anhydrase inhibitors. Inhibition of mammalian isoforms I-XIV with a series of natural product polyphenols and phenolic acids” (Bioorg Med Chem, 2010)
